# CycPeptMPDB entries from one study

Values of Townsend et al. 2020, doi:10.26434/chemrxiv.13335941.v1, as listed in CycPeptMPDB.

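Conditions beyond the assay type are not listed; see the original paper. Other peptides of the study may be missing here. Peptides that the database sets to -10, its floor, are left out.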

PAMPA is the parallel artificial membrane permeability assay, which has no cells and reads passive diffusion. Values are log10 P with P in cm/s, so -5 is more permeable than -7.

{"smiles": "CC(C)C[C@@H]1NC(=O)[C@H]2CCCN2C(=O)[C@H](CC(C)C)N(C)C(=O)[C@@H](CC(C)C)N(C)C(=O)[C@H](C)N(C)C(=O)[C@H](Cc2ccccc2)NC1=O", "PAMPA (log10 cm/s)": "-5.26"}
{"smiles": "CC(C)C[C@@H]1C(=O)N2CCC[C@H]2C(=O)N(Cc2ccccc2)CC(=O)N[C@@H](Cc2ccccc2)C(=O)N2CCC[C@@H]2C(=O)N(C)[C@@H](C)C(=O)N[C@H](CC(C)C)C(=O)N1C", "PAMPA (log10 cm/s)": "-5.68"}
{"smiles": "CC(C)C[C@@H]1C(=O)N(Cc2ccccc2)CC(=O)N2CCC[C@H]2C(=O)N(C)[C@H](CC(C)C)C(=O)N[C@@H](Cc2ccccc2)C(=O)N2CCC[C@H]2C(=O)N[C@@H](C)C(=O)N1C", "PAMPA (log10 cm/s)": "-5.80"}
{"smiles": "CC(C)C[C@@H]1NC(=O)[C@H]2CCCN2C(=O)CN(Cc2ccccc2)C(=O)[C@H](CC(C)C)NC(=O)[C@H](C)NC(=O)[C@@H]2CCCN2C(=O)[C@H](Cc2ccccc2)NC1=O", "PAMPA (log10 cm/s)": "-6.41"}
{"smiles": "CC(C)C[C@@H]1NC(=O)[C@H](C)NC(=O)[C@H](Cc2ccccc2)NC(=O)[C@@H](CC(C)C)NC(=O)[C@@H]2CCCN2C(=O)[C@@H](CC(C)C)N(C)C1=O", "PAMPA (log10 cm/s)": "-6.10"}
{"smiles": "CC(C)C[C@@H]1C(=O)N2CCC[C@@H]2C(=O)N(C)[C@@H](CC(C)C)C(=O)N[C@@H](Cc2ccccc2)C(=O)N[C@H](C)C(=O)N(C)[C@@H](CC(C)C)C(=O)N1C", "PAMPA (log10 cm/s)": "-5.02"}
{"smiles": "CC(C)C[C@@H]1NC(=O)C[C@H](Cc2ccccc2)NC(=O)[C@@H]2CCCN2C(=O)[C@H](Cc2ccccc2)NC(=O)[C@H](CC(C)C)N(C)C(=O)[C@@H]2CCCN2C(=O)[C@@H](CC(C)C)N(C)C1=O", "PAMPA (log10 cm/s)": "-5.17"}
{"smiles": "CC(C)C[C@H]1NC(=O)C[C@H](Cc2ccccc2)NC(=O)[C@@H]2CCCN2C(=O)[C@H](Cc2ccccc2)NC(=O)CN(Cc2ccccc2)C(=O)[C@@H]2CCCN2C(=O)[C@H](CC(C)C)N(C)C1=O", "PAMPA (log10 cm/s)": "-5.97"}
{"smiles": "CC(C)C[C@H]1NC(=O)[C@@H]2CCCN2C(=O)CN(Cc2ccccc2)C(=O)[C@@H](CC(C)C)NC(=O)C[C@H](Cc2ccccc2)NC(=O)[C@@H]2CCCN2C(=O)[C@H](Cc2ccccc2)NC1=O", "PAMPA (log10 cm/s)": "-6.10"}
{"smiles": "CC(C)C[C@@H]1C(=O)N[C@@H](Cc2ccccc2)C(=O)N[C@@H](Cc2ccccc2)CC(=O)N[C@H](CC(C)C)C(=O)N[C@@H](Cc2ccccc2)CC(=O)N2CCC[C@@H]2C(=O)N1C", "PAMPA (log10 cm/s)": "-5.55"}
{"smiles": "CC(C)C[C@H]1NC(=O)[C@@H]2CCCN2C(=O)[C@H](CC(C)C)N(C)C(=O)[C@@H](CC(C)C)NC(=O)[C@@H](C)N(C)C(=O)[C@H](Cc2ccccc2)NC1=O", "PAMPA (log10 cm/s)": "-5.05"}
{"smiles": "CC(C)C[C@@H]1NC(=O)[C@H](C)NC(=O)[C@H]2CCCN2C(=O)[C@H](Cc2ccccc2)NC(=O)CN(Cc2ccccc2)C(=O)[C@H]2CCCN2C(=O)CN(Cc2ccccc2)C1=O", "PAMPA (log10 cm/s)": "-6.22"}
{"smiles": "CC(C)C[C@H]1NC(=O)[C@@H](C)NC(=O)[C@H](Cc2ccccc2)NC(=O)CN(Cc2ccccc2)C(=O)[C@@H]2CCCN2C(=O)CN(Cc2ccccc2)C1=O", "PAMPA (log10 cm/s)": "-6.22"}
{"smiles": "CC(C)C[C@@H]1NC(=O)[C@@H]2CCCN2C(=O)CN(Cc2ccccc2)C(=O)[C@H](CC(C)C)NC(=O)[C@H](C)N(C)C(=O)[C@@H]2CCCN2C(=O)[C@H](Cc2ccccc2)NC1=O", "PAMPA (log10 cm/s)": "-6.28"}
{"smiles": "CC(C)C[C@@H]1C(=O)N[C@@H](Cc2ccccc2)C(=O)N2CCC[C@@H]2C(=O)N[C@H](C)C(=O)N(C)[C@@H](CC(C)C)C(=O)N(Cc2ccccc2)CC(=O)N2CCC[C@H]2C(=O)N1C", "PAMPA (log10 cm/s)": "-6.38"}
{"smiles": "CC(C)C[C@H]1C(=O)N2CCC[C@H]2C(=O)N(C)[C@@H](CC(C)C)C(=O)N[C@@H](Cc2ccccc2)C(=O)N[C@H](C)C(=O)N(Cc2ccccc2)CC(=O)N1C", "PAMPA (log10 cm/s)": "-5.44"}
{"smiles": "CC(C)C[C@H]1NC(=O)C[C@H](Cc2ccccc2)NC(=O)[C@H](Cc2ccccc2)NC(=O)[C@@H](CC(C)C)NC(=O)[C@@H]2CCCN2C(=O)[C@@H](CC(C)C)NC1=O", "PAMPA (log10 cm/s)": "-5.81"}
{"smiles": "CC(C)C[C@@H]1C(=O)N(C)[C@@H](CC(C)C)C(=O)N2CCC[C@@H]2C(=O)N(Cc2ccccc2)CC(=O)N[C@@H](Cc2ccccc2)C(=O)N2CCC[C@H]2C(=O)N(C)[C@@H](C)C(=O)N1C", "PAMPA (log10 cm/s)": "-5.59"}
{"smiles": "CC(C)C[C@@H]1NC(=O)[C@H](C)N(C)C(=O)[C@@H]2CCCN2C(=O)[C@H](Cc2ccccc2)NC(=O)[C@H](CC(C)C)NC(=O)[C@@H]2CCCN2C(=O)C[C@H](Cc2ccccc2)NC1=O", "PAMPA (log10 cm/s)": "-6.22"}
{"smiles": "CC(C)C[C@@H]1NC(=O)[C@H]2CCCN2C(=O)[C@@H](CC(C)C)NC(=O)[C@@H](CC(C)C)NC(=O)[C@@H](C)NC(=O)[C@H]2CCCN2C(=O)[C@H](Cc2ccccc2)NC1=O", "PAMPA (log10 cm/s)": "-6.96"}
{"smiles": "CC(C)C[C@@H]1NC(=O)[C@@H](CC(C)C)NC(=O)C[C@H](Cc2ccccc2)NC(=O)[C@H]2CCCN2C(=O)[C@H](Cc2ccccc2)NC(=O)[C@@H](CC(C)C)N(C)C(=O)[C@@H]2CCCN2C1=O", "PAMPA (log10 cm/s)": "-5.31"}
{"smiles": "CC(C)C[C@@H]1C(=O)N[C@@H](Cc2ccccc2)C(=O)N2CCC[C@H]2C(=O)N(C)[C@H](C)C(=O)N[C@H](CC(C)C)C(=O)N(Cc2ccccc2)CC(=O)N2CCC[C@H]2C(=O)N1C", "PAMPA (log10 cm/s)": "-6.02"}

The first 2 entries again:

{"smiles": "CC(C)C[C@@H]1NC(=O)[C@H]2CCCN2C(=O)[C@H](CC(C)C)N(C)C(=O)[C@@H](CC(C)C)N(C)C(=O)[C@H](C)N(C)C(=O)[C@H](Cc2ccccc2)NC1=O", "PAMPA (log10 cm/s)": "-5.26"}
{"smiles": "CC(C)C[C@@H]1C(=O)N2CCC[C@H]2C(=O)N(Cc2ccccc2)CC(=O)N[C@@H](Cc2ccccc2)C(=O)N2CCC[C@@H]2C(=O)N(C)[C@@H](C)C(=O)N[C@H](CC(C)C)C(=O)N1C", "PAMPA (log10 cm/s)": "-5.68"}